Experimental data as given in patent publication US6384186B2 (priority 1995, dated 2002).

Test: Solubility in organic solvents (physico-chemical data, Table 3)

Structure (SMILES): CCC(C)C1NC(=O)C(C(C)C)N(C)C(=O)C(Cc2c[nH]c3ccccc23)NC(=O)CN(C)C(=O)C(C(C)CC)N(C)C(=O)C(C(C)C)NC(=O)CN(C)C(=O)C(C(C)CC)N(C)C(=O)C(C(C)C)N(C)C(=O)CN(C)C(=O)C(C(C)C)N(C)C(=O)C(C(C)C)N(C)C1=O (stereo not drawn) [omphalotin]
- Solubility (in cyclohexane and t-butyl methyl ether): hardly soluble in cyclohexane and t-butyl methyl
- Solubility (in ethyl acetate): propanol, less readily soluble in ethyl acetate and
- Solubility (in methanol, acetone and 2-propanol): readily soluble in methanol, acetone and 2-
